In patent publication US20250049928A1, “ANESTHETIC PRODRUGS AND DERIVATIVES THEREOF FOR PROLONGED SENSORY SELECTIVE NERVE BLOCKAGE” (The Board of Trustees of The University of Alabama, priority 2023, published 2025):

Conditions: buffer

| Substance | Half-lives |
| --- | --- |
| galacturonic acid-capsaicin prodrug [GalA-CAP prodrug] | 111.8 h |
| glycine-capsaicin prodrug [Gly-CAP prodrug] | 49.5 h |
